Molecular target: ΔF508-CFTR (Homo sapiens, UniProt P13569, DEL508-508)
Assay: Fluorescence (YFP-H148Q/I152L) I− influx assay of ΔF508-CFTR potentiator activity in FRT cells
Settings: 27° C. 24 h, forskolin 20 μM
[1] = sulfonamide containing compounds
[2] = phenylglycine containing compounds

Chains of the proteins cited; added tags and fusions are not shown. A line that says so, or that is headed by a name, gives the form on record, which may keep a tag or linker.
UniProt P13569, with tags, fused parts or gaps DEL508-508: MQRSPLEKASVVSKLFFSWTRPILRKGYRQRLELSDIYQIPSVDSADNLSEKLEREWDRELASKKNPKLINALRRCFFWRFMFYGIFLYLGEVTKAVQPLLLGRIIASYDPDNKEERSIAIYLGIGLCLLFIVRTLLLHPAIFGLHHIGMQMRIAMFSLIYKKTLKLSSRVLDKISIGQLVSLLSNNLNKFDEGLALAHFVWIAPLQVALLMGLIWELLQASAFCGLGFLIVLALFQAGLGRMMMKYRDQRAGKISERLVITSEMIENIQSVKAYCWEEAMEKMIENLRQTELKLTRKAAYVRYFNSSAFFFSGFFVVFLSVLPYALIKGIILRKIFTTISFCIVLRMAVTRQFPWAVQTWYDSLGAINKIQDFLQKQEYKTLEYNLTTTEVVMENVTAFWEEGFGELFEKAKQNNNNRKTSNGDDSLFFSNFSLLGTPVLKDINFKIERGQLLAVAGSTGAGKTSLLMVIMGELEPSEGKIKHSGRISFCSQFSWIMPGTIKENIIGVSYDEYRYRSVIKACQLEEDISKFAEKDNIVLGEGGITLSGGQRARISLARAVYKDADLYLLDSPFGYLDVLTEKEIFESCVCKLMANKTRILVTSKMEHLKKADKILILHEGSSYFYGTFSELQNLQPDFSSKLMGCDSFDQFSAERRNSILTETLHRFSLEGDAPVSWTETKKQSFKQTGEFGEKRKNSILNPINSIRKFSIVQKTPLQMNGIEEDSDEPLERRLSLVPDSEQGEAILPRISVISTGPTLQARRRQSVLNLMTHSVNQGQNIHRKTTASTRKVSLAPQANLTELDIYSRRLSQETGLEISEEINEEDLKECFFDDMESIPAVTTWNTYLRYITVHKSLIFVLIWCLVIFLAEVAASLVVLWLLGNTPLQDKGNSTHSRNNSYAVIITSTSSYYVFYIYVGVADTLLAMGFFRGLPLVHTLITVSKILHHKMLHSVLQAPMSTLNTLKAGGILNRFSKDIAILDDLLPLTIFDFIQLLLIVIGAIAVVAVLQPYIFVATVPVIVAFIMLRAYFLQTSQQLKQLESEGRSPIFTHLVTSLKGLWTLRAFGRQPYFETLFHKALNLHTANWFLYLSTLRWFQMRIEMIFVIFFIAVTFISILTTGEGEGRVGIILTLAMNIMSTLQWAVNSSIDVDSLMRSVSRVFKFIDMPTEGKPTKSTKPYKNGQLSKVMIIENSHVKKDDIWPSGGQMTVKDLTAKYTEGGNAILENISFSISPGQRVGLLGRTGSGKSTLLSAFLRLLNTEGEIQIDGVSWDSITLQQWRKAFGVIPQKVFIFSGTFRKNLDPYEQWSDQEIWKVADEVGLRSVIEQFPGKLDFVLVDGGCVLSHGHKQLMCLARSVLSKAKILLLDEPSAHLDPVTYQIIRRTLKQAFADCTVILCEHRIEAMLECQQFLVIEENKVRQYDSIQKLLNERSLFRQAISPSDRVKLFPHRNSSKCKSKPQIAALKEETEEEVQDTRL

SMILES: COc1ccccc1CNC(=O)c1c[nH]c2ccc(S(=O)(=O)N3CCC4(CC3)OCCO4)cc2c1=O
- Ka [1]: 0.80 µM

SMILES: CCCCCNC(=O)c1c[nH]c2ccc(S(=O)(=O)N3CCC4(CC3)OCCO4)cc2c1=O
- Ka [1]: 0.88 µM

SMILES: CN(C(=O)Cc1c[nH]c2ccccc12)C(C(=O)Nc1ccc2c(c1)OCCO2)c1ccccc1 (centres unmarked)
- Ka [2]: 0.40 µM

SMILES: Cc1ccc(C(C(=O)Nc2ccc(C(C)C)cc2)N(Cc2ccco2)C(=O)Cc2c[nH]c3ccccc23)cc1 (centres unmarked)
- Ka [2]: Moderate Activity

SMILES: CC(C)CCNC(=O)c1c[nH]c2ccc(S(=O)(=O)N3CCc4ccccc43)cc2c1=O
- Ka [1]: 0.76 µM
